From PubChem BioAssay AID1832 (Broad Institute, 2009)
Only a part is listed here, and it is no random draw. Some structures show a salt or complex split into parts, the way the source records it. The source made the active and inactive calls.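 How the source made its calls: active means inhibition past about -25% in most replicates, and total fluorescence under double the plate's negative control median (limit read from the data); inconclusive means replicates evenly split on the limit, or fluorescence at least double controls; inactive means too little inhibition in most replicates.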

The chains behind the UniProt entries cited, without tags or fusion partners.
UniProt Q9XUB2, whole entry: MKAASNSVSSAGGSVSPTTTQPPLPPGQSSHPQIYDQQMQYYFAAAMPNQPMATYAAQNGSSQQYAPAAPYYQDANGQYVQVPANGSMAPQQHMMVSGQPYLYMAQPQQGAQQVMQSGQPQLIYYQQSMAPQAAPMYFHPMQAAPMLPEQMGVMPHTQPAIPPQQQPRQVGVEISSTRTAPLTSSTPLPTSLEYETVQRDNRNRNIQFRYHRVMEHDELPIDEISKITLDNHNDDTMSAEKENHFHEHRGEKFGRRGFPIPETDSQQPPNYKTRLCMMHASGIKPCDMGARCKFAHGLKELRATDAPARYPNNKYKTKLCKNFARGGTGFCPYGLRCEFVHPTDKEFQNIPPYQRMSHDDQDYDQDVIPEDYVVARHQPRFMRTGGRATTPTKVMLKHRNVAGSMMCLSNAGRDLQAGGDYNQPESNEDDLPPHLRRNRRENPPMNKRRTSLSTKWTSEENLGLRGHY

target: Zinc finger protein mex-5 (Caenorhabditis elegans) (UniProt Q9XUB2); assay: MEX-5 zinc finger RNA-binding disruptors – biochemical, C. elegans, fluorescence polarization, MLPCN library, primary screen (AID 1832); settings: MEX-5/FITC-TCR2 RNA binding, at 10 µM, stronger effect = lower value;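 further: 0% = DMSO and -100% = 5 µM competing unlabeled TCR2 RNA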

| Compound | activity score (negative = inhibition of binding) |
| --- | --- |
| Cc1cc(C)cc(OP(C)(N)=O)c1 (stereo unspecified) | inactive: 2.52% |
| COc1ccccc1OP(C)(=O)Nc1cc(Cl)ccc1C (stereo unspecified) | inactive: 2.85% |
| COc1ccc(OP(C)(=O)Nc2cccc(F)c2)cc1 (stereo unspecified) | inactive: -0.11% |
| COc1ccccc1OP(C)(=O)Nc1ccc(C)cc1 (stereo unspecified) | inactive: 0.536% |
| Cc1ccc(NP(C)(=O)Oc2ccccc2)c(C)c1 (stereo unspecified) | inactive: -1.7% |
| CCOC(=O)c1ccc(NP(C)(=O)Oc2ccccc2)cc1 (stereo unspecified) | inactive: 0.833% |
| O=[N+]([O-])c1ccc2c(c1)C=Nc1ccccc1O2 | inactive: -0.0142% |
| CC(C)(C)c1ccc(OP(C)(=O)Nc2ccc(SC(F)(F)F)cc2)cc1 (stereo unspecified) | inactive: -2.15% |
| Cc1cccc(C)c1OP(C)(N)=O (stereo unspecified) | inactive: -0.171% |
| O=[N+]([O-])c1cc([N+](=O)[O-])c(Nc2cccnc2)c([N+](=O)[O-])c1 | inactive: -0.783% |
| CCN(CC)CCCOC(=O)C(O)(c1ccccc1)c1ccccc1 | inactive: 0.552% |
| CP(=O)(Nc1ccccn1)Oc1ccc(Cl)cc1 (stereo unspecified) | inactive: -1.09% |
| O=[N+]([O-])c1cc([N+](=O)[O-])c(O)c([N+](=O)[O-])c1.c1ccc(Oc2ccncc2)cc1 | inactive: -0.168% |
| CCOC(=O)c1ccc(NP(C)(=O)Oc2ccc(OC)cc2)cc1 (stereo unspecified) | inactive: 1.37% |
| CCOP(C)(=S)SCC(=O)NC(C)C(=O)O (stereo unspecified) | inactive: -2.8% |
| CP(=O)(NC(=O)Nc1ccccc1)Oc1ccccc1 (stereo unspecified) | inactive: 1.92% |
| Cc1cc(C)cc(OP(C)(=O)Nc2ccc(SC(F)(F)F)cc2)c1 (stereo unspecified) | inactive: -3.79% |
| CP(=O)(Nc1ccc(SC(F)(F)F)cc1)Oc1ccc(Cl)cc1 (stereo unspecified) | inactive: -1.63% |
| Cc1cccc(C)c1OP(C)(=O)Nc1ccc(SC(F)(F)F)cc1 (stereo unspecified) | inactive: 0.835% |
| CP(=O)(Oc1ccccc1)OC(c1ccccc1)C(F)(F)F (stereo unspecified) | inactive: 0.9% |
| CP(=O)(Nc1ccccc1Br)Oc1ccccc1 (stereo unspecified) | inactive: 1.33% |
| COc1ccccc1OP(C)(=O)Nc1ccccc1 (stereo unspecified) | inactive: -2.2% |

| Compound | activity score (negative = inhibition of binding) |
| --- | --- |
| CP(=S)(Nn1cnnc1)Oc1ccccc1 (stereo unspecified) | inactive: -3.19% |
| CP(=O)(Nc1ccc(SC(F)(F)F)cc1)Oc1ccccc1 (stereo unspecified) | inactive: 2.77% |
| CCCOc1ccc(NP(C)(=O)Oc2ccc(Cl)cc2)cc1 (stereo unspecified) | inactive: 1.84% |
| CN1CCCCC1COC(=O)C1(O)c2ccccc2CCc2ccccc21 (stereo unspecified) | inactive: 5.18% |
| COc1ccccc1OP(C)(=O)Nc1c(C)cccc1C (stereo unspecified) | inactive: -1.39% |
| O=[N+]([O-])c1cc([N+](=O)[O-])c(Nc2nnnn2CCO)c([N+](=O)[O-])c1 | inactive: 0.552% |
| CCOC(=O)C(CC)C1=NC(C)(C)Cc2ccccc21.O=[N+]([O-])c1cc([N+](=O)[O-])c(O)c([N+](=O)[O-])c1 (stereo unspecified) | inactive: -1.1% |
| O=[N+]([O-])c1cc([N+](=O)[O-])c(-c2cnn(-c3ccccc3)c2)c([N+](=O)[O-])c1 | inactive: 3.94% |
| O=[N+]([O-])c1cc([N+](=O)[O-])c(-n2nnc3ccccc32)c([N+](=O)[O-])c1 | inactive: -0.907% |
| Cc1ccc(C)c(NP(C)(=O)Oc2ccccc2)c1 (stereo unspecified) | inactive: -1.22% |
| CP(=O)(Nc1cccc(Br)c1)Oc1ccccc1 (stereo unspecified) | inactive: 2.49% |
| Cc1cc(C)cc(OP(C)(=O)Nc2ccccn2)c1 (stereo unspecified) | inactive: -3.03% |
| CCOC(=O)c1ccc(NP(C)(=O)Oc2cc(C)cc(C)c2)cc1 (stereo unspecified) | inactive: 3.75% |
| Cc1cc(C)cc(OP(C)(=O)Nc2ccc(C)cc2C)c1 (stereo unspecified) | inactive: -1.8% |
| COc1ccccc1OP(C)(=O)Nc1cccc(Br)c1 (stereo unspecified) | inactive: 2.28% |
| CC1=NCCc2c1[nH]c1ccccc21.O=[N+]([O-])c1cc([N+](=O)[O-])c(O)c([N+](=O)[O-])c1 | inactive: -0.235% |
| O=C(O)c1cccc(Nc2c([N+](=O)[O-])cc([N+](=O)[O-])cc2[N+](=O)[O-])c1 | inactive: 1.66% |
| CP(=O)(Nc1ccccc1)Oc1ccc(F)cc1 (stereo unspecified) | inactive: -3.47% |
| CCCCCOc1ccc(NP(C)(=O)Oc2ccc(Cl)cc2Cl)cc1 (stereo unspecified) | inactive: 1.15% |
| O=[N+]([O-])c1cc([N+](=O)[O-])c(OC2CCCCC2O)c([N+](=O)[O-])c1 (stereo unspecified) | inactive: -1.61% |
| CCOC(=O)c1ccc(NP(C)(=O)Oc2ccc(F)cc2)cc1 (stereo unspecified) | inactive: 0.198% |
| COc1ccc(OP(C)(=O)Nc2ccc(SC(F)(F)F)cc2)cc1 (stereo unspecified) | inactive: -3.62% |

| Compound | activity score (negative = inhibition of binding) |
| --- | --- |
| COc1ccc2c(c1O)-c1c(O)c(OC)cc3c1[C@H](C2)[N+](C)(C)CC3.O=[N+]([O-])c1cc([N+](=O)[O-])c([O-])c([N+](=O)[O-])c1[O-] | inactive: -4.27% |
| O=C(OC1CN2CCC1CC2)c1ccc([N+](=O)[O-])cc1 (stereo unspecified) | inactive: 0.832% |
| O=C(OCCN1CCN(CCOCc2ccccc2)CC1)C(O)(c1ccccc1)c1ccccc1 | inactive: 0.822% |
| CP(=O)(Nc1ccccc1F)Oc1ccccc1 (stereo unspecified) | inactive: 1.33% |
| CC(C)c1ccc(OP(C)(=O)Nc2ccc(SC(F)(F)F)cc2)cc1 (stereo unspecified) | inactive: -2.14% |
| Cc1ccccc1NP(C)(=O)Nc1ccccc1C | inactive: 1.41% |
| CP(=O)(Nc1ccc2c(c1)OCCO2)Oc1ccccc1 (stereo unspecified) | inactive: 3.41% |
| CCOP(C)(=S)SCC(=O)NC(C)(CC)C(=O)O (stereo unspecified) | inactive: -0.0518% |
| CP(=O)(Nc1ccc(SC(F)(F)F)cc1)Oc1ccc(F)cc1 (stereo unspecified) | inactive: 0.591% |
| O=[N+]([O-])c1ccc(OP2(=O)COCCO2)cc1 (stereo unspecified) | inactive: -0.741% |
| Cc1cc(-c2cccc3ccccc23)c(C)cn1.O=[N+]([O-])c1cc([N+](=O)[O-])c(O)c([N+](=O)[O-])c1 | inactive: 1.16% |
| O=[N+]([O-])c1cc([N+](=O)[O-])c(NCC2CCS(=O)(=O)C2)c([N+](=O)[O-])c1 (stereo unspecified) | inactive: -0.273% |
| CN(C)CCOC(=O)C(O)(c1ccccc1)C1CCCCC1 (stereo unspecified) | inactive: 0.377% |
| COc1ccc(NP(C)(=O)Oc2ccccc2OC)cc1 (stereo unspecified) | inactive: -1.12% |
| COc1ccc(OP(C)(=O)Nc2cccc(Br)c2)cc1 (stereo unspecified) | inactive: 0.301% |
| CCOC(=O)c1ccc(NP(C)(=O)Oc2ccc(Cl)cc2)cc1 (stereo unspecified) | inactive: -3.39% |
| CP(=O)(OC12CC3CC(CC(C3)C1)C2)OC12CC3CC(CC(C3)C1)C2 | inactive: 2.18% |
| Nc1ccc2c(ccc3cccnc32)n1.O=[N+]([O-])c1cc([N+](=O)[O-])c(O)c([N+](=O)[O-])c1 | inactive: -1.01% |
| CN(C)C(=O)c1c([N+](=O)[O-])cc([N+](=O)[O-])cc1[N+](=O)[O-] | inactive: 1.94% |
| CC(C)(C)c1ccc(OP(C)(=O)O)cc1 | inactive: -1.84% |
| COc1ccccc1OP(C)(=O)Nc1ccccc1Br (stereo unspecified) | inactive: -0.367% |
| CP(=O)(Nc1ccc(Cl)cc1)Oc1ccc(F)cc1 (stereo unspecified) | inactive: 1.4% |

| Compound | activity score (negative = inhibition of binding) |
| --- | --- |
| COc1ccccc1OP(C)(=O)Nc1c(C)n(C)n(-c2ccccc2)c1=O (stereo unspecified) | inactive: -1.45% |
| O=C(OCCCN1CCCC1)C(O)(c1ccccc1)C1CCCCC1 (stereo unspecified) | inactive: -2.01% |
| CP(=O)(Oc1ccccc1)N1CCOC1=O (stereo unspecified) | inactive: -2.26% |
| CCc1ccc(OP(C)(=O)Nc2cccnc2)cc1 (stereo unspecified) | inactive: 0.17% |
| CCN(CC)CC(O)COC(=O)C(O)(c1ccccc1)C1CCCCC1 (stereo unspecified) | inactive: 1.45% |
| COc1ccc(OP(C)(=O)Nc2ccc(Br)cc2)cc1 (stereo unspecified) | inactive: 1.7% |
| CP(=O)(Nc1ccccn1)Oc1ccccc1 (stereo unspecified) | inactive: -0.518% |
| COc1ccccc1OP(C)(=O)Nc1ccc(C)cc1C (stereo unspecified) | inactive: 0.518% |
| CCc1ccc(OP(C)(=O)O)cc1 | inactive: 1.74% |
| O=[N+]([O-])c1cc([N+](=O)[O-])c(Nc2ccccn2)c([N+](=O)[O-])c1 | inactive: 2.19% |
| Cc1c(NP(C)(=O)Oc2ccc(C(C)C)cc2)c(=O)n(-c2ccccc2)n1C (stereo unspecified) | inactive: 1.73% |
| COc1ccc(OP(C)(=O)Nc2ccccn2)cc1 (stereo unspecified) | inactive: -1.98% |
| CN(C)CCOC(=O)C(O)(c1ccccc1)C1CCCC1 (stereo unspecified) | inactive: 1.32% |
| COc1ccccc1OP(C)(=O)Nc1ccc(Br)cc1 (stereo unspecified) | inactive: 0.485% |
| CP(=O)(OCCOc1ccccc1)OCCOc1ccccc1 | inactive: 0.697% |
| CP(=O)(Nc1ccc(Cl)cc1Cl)Oc1ccccc1 (stereo unspecified) | inactive: -1.26% |
| Cc1nc2ccc3ccccc3c2o1.O=[N+]([O-])c1cc([N+](=O)[O-])c(O)c([N+](=O)[O-])c1 | inactive: -1.69% |
| COc1ccccc1OP(C)(=O)Nc1ccc(C)c(C)c1 (stereo unspecified) | inactive: 0.174% |
| COc1ccc(OP(C)(=O)Nc2ccccc2Br)cc1 (stereo unspecified) | inactive: 1.32% |
| Cc1cc(C)cc(OP(C)(=O)Nc2cccc(C(F)(F)F)c2)c1 (stereo unspecified) | inactive: 1.1% |
